What was measured:
P37840 [1] = test: SDS-PAGE and Western blot of aggregates (SDS stability); agitation-induced preformed fibrils, 200 ng/lane, boiled at 95 °C for 5 min, 12% gel; species above 17 kD against the monomer band; details: other: SDS-PAGE and Western blot of aggregates (SDS stability)
P37840 [2] = test: SDS-PAGE and Western blot of aggregates (SDS stability); ONE-induced aggregates, 200 ng/lane, boiled at 95 °C for 5 min, 12% gel; species above 17 kD against the monomer band; details: other: SDS-PAGE and Western blot of aggregates (SDS stability)
P37840 [3] = test: thioflavin T fluorescence + transmission electron microscopy; self-association into aggregates induced by ONE: 1.5 µL ONE (10 mg/mL) added to 50 µL monomer (2 mg/mL), 18 h at 37 °C, horizontal shaker; ThT read at 8 µM protein in 20 mM Tris pH 7.4, 0.15 M NaCl, 19 µM ThT, 37 °C; time course …; details: other: thioflavin T fluorescence + transmission electron microscopy
P37840 [4] = test: thioflavin T fluorescence + transmission electron microscopy; self-association into preformed fibrils induced by agitation: 100 µL monomer (4 mg/mL), 37 °C, 1000 rpm, 7 days; ThT read at 8 µM protein in 20 mM Tris pH 7.4, 0.15 M NaCl, 19 µM ThT, 37 °C; time course 1, 3, 7 days; details: other: thioflavin T fluorescence + transmission electron microscopy

| Substance | SDS-Stability of aggregates (ratio to monomeric protein) (ratio to monomeric protein) (P37840 [1]) | SDS-Stability of aggregates (ratio to monomeric protein) (ratio to monomeric protein) (P37840 [2]) | p-α-syn aggregate speed (ratio to α-syn) (P37840 [3]) | p-α-syn aggregate speed (ratio to α-syn) (P37840 [4]) |
| --- | --- | --- | --- | --- |
| recombinant human α-synuclein (wild type, full length) | 2.33 | 13.1 |  |  |
| recombinant human α-synuclein phosphorylated at Ser129 | 3.2 | 7.14 | 1.409 ± 0.016 (18 h) | 1.497 ±0.111 (7Days) |

From article PMC11082957
